Reference: patent publication US20050175695A1, “Carvedilol free base, salts, anhydrous forms or solvates thereof, corresponding pharmaceutical compositions, controlled release formulations, and treatment or delivery methods” (priority 2003, published 2005)

Key:
[1] = Solubility in water of carvedilol free base and monocitrate salt over time (Table 11); format: physicochemical; settings: 25° C., 1 hr
[2] = Aqueous solubility at 25° C. of carvedilol free base and three salts (Table 13); format: physicochemical

For `COc1ccccc1OCCNCC(O)COc1cccc2[nH]c3ccccc3c12` (centres unmarked) [Carvedilol Free Base], the “Aqueous Solubility” value [1] was 0.0098 mg of carvedilol free base/mL of solution and the “Aqueous Solubility” value ([2]; 24 hr) was 0.024 mg of Carvedilol free base/mL of solution.

With `COc1ccccc1OCCNCC(O)COc1cccc2[nH]c3ccccc3c12` (centres unmarked) [HBr salt, Carvedilol HBr] the “Aqueous Solubility” value ([2]; 1 hr) was 0.62 mg of Carvedilol free base/mL of solution, the “Aqueous Solubility” value ([2]; 4 hr) was 0.61 mg of Carvedilol free base/mL of solution and the “Aqueous Solubility” value ([2]; 24 hr, HBr) was 0.61 mg of Carvedilol free base/mL of solution.

Structures can show the parent of a compound that is named as a salt.
